{"source": "patent US20140120543A1", "about": "(INSTITUTE GUSTAVE ROUSSY, published 2014)", "biological_target": "T1, ERCC1-202 isoform (isoform 202 of the ERCC1 protein) (human, UniProt P07992 1-297)", "T1 construct": "Re-expressed in ERCC1-deficient A549 clone 216; Detected inside fixed, permeabilised cells by PLA, not on the cell surface", "T1 sequence": "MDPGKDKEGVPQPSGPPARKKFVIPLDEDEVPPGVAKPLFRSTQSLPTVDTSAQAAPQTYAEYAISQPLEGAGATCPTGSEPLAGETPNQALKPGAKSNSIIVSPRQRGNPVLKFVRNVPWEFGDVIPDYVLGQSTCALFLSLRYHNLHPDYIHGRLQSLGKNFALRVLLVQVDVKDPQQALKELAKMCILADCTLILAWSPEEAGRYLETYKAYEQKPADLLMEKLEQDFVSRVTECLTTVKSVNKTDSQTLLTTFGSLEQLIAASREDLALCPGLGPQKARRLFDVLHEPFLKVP", "test": "proximity ligation assay (Duolink), ERCC1 detected with FL297 antibody", "description": "ERCC1 was detected using FL297 antibody.\nProtein interactions were studied using the Duolink II proximity ligation assays (PLA) kit (Olink, Uppsala, Sweden). Coverslips were processed according to the manufacturer's instructions. In brief, the cells were fixed with methanol, permeabilized with triton, stained with the primary antibodies, and then incubated with the secondary oligonucleotide-linked antibodies. The oligonucleotides were hybridized, ligated, amplified, and detected using a fluorescent probe."}
{"binder": "XPA protein (xeroderma pigmentosum group A) (other, Endogenous protein of the human A549 cell line, inside fixed cells) AAADGALPEAAALEQPAELPASVRASIERKRQRALMLRQARLAARPYSATAAAATGGMANVKAAPKIIDTGGGFILEEEEEEEQKIGKVVHQPGPVMEFDYVICEECGKEFMDSYLMNHFDLPTCDNCRDADDKHKLITKTEAKQEYLLKDCDLEKREPPLKFIVKKNPHHSQWGDMKLYLKLQIVKRSLEVWGSQEALEEAKEVRQENREKMKQKKFDKKVKELRRAVRSSVWKRETIVHQHEYGPEENLEDDMYRKTCTMCGHELTYEKM", "values": [{"measurement": "binding result", "result": "binds"}]}
